Measured values published in ChEMBL document CHEMBL1143561, “Virtual docking approaches to protein kinase B inhibition” (J Med Chem, 2005).
pIC50: −log10 of the molar value.

Protein sequences, listed by entry. Tags and fused reporters are not part of them. Lines headed by an entry give the natural chain unless they say otherwise; changes in a name come on top.
UniProt P31749: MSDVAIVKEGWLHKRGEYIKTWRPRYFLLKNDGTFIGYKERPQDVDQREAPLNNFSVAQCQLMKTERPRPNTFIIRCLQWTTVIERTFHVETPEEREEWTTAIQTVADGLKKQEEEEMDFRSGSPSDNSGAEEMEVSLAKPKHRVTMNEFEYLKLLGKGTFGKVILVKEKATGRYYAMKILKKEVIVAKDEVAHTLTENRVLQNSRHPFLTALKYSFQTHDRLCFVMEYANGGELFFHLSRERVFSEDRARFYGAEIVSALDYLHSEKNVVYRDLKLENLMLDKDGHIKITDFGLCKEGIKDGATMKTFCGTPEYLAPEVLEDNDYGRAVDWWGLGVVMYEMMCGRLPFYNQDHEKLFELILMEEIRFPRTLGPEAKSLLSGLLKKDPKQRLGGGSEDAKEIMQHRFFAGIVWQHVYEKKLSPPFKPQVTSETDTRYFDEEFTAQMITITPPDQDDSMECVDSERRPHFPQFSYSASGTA

Target: RAC-alpha serine/threonine-protein kinase (Homo sapiens, UniProt P31749)
Experiment: Inhibition of protein kinase B alpha (Akt1) in fluorescent enzymatic assay

## CC1=C(C#N)c2nc(N)c(C#N)c(C)c2/C1=C/c1ccc(-c2ccc(C(=O)O)cc2)o1
  pIC50: 3.90
